CC50 data for one molecule are collected here from ChEMBL document CHEMBL6087459 (J Med Chem, 2025).

The data set has as its system HCT-8. The following applies: human.

Molecule `CCc1nn(C)c2nc(-c3ccc4c(c3)COB4O)nc(NCc3ccc(F)cc3)c12` gave a CC50 above 100 µM.
